Measured values as given in PubChem BioAssay AID602363 (Broad Institute, 2012).
In all, about 350,000 compounds went through this assay and about 450 (0.13%) were called active. The list comes from a sample in which actives are over-represented; it also holds similar structures and randomly drawn compounds. Values without a mark were called inactive.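 The calls were made as follows: active = replicate mean at a twofold rise or more (about +100% in these data); inactive = the rest.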

experiment: UUG initiation codon usage in yeast – whole organism, S. cerevisiae, single point, plate reader, primary screen (AID 602363);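 also: firefly luciferase made from a UUG start codon reports start codon fidelity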; conditions: S. cerevisiae UUG-firefly luciferase reporter, luminescence/redox ratio; at 18.7 µM; stronger effect = higher value

Question: With `C[C@@H]1CN([C@@H](C)CO)C(=O)c2cc(NS(=O)(=O)c3cccs3)ccc2O[C@@H]1CN(C)S(=O)(=O)c1ccc(F)cc1` as the compound, how does the activity score read?
Answer: 2.8%

Question: With `C[C@@H]1CCCCO[C@@H](CN(C)S(C)(=O)=O)[C@H](C)CN([C@@H](C)CO)C(=O)c2cc(NC(=O)Nc3ccc4c(c3)OCO4)ccc2O1` as the compound, how does the activity score read?
Answer: 12.2%

Question: With `C[C@H]1CN([C@@H](C)CO)C(=O)c2cc(-c3ccccc3F)cnc2O[C@@H]1CN(C)C(=O)C1CCCCC1` as the compound, how does the activity score read?
Answer: 12.9%

Question: Which activity score does the source give for `CO[C@@H]1CN(C)C(=O)c2cc(NC(=O)NC3CCCCC3)ccc2OC[C@H](C)N(CC2CC2)C[C@H]1C` here?
Answer: -4.52%

Question: For `CC(=O)N(C)C[C@H]1Oc2cc(C#CC3CC3)ccc2S(=O)(=O)N([C@H](C)CO)C[C@@H]1C`, which activity score is on record?
Answer: 22%

Question: With `COc1ccccc1C#Cc1ccc([C@H]2[C@H](CO)N3CCCCN(C(=O)C4CCC4)C[C@@H]23)cc1` as the compound, how does the activity score read?
Answer: 29.8%

Question: Which activity score does the source give for `Cc1ccccc1-c1cnc2c(c1)C(=O)N([C@@H](C)CO)C[C@@H](C)[C@@H](CN(C)CC1CCOCC1)O2` here?
Answer: -10.7%

Question: Which activity score does the source give for `C[C@H]1CN([C@@H](C)CO)S(=O)(=O)c2ccc(C#CCN(C)C)cc2O[C@H]1CN(C)C(=O)CN(C)C` here?
Answer: 28.3%

Question: With `C/C=C/c1ccc2c(c1)O[C@@H](CN(C)C(=O)NC1CCCC1)[C@@H](C)CN([C@H](C)CO)S2(=O)=O` as the compound, how does the activity score read?
Answer: 12.5%

Question: Which activity score does the source give for `CC(C)C#Cc1ccc2c(c1)O[C@@H](CN(C)C(=O)CN(C)C)[C@@H](C)CN([C@H](C)CO)S2(=O)=O` here?
Answer: 61.3% (active)

Question: Which activity score does the source give for `C[C@@H]1CN([C@@H](C)CO)S(=O)(=O)c2ccc(C#Cc3ccc(F)cc3)cc2O[C@@H]1CN(C)CC1CC1` here?
Answer: 11.3%

Question: For `C[C@@H]1CN([C@@H](C)CO)S(=O)(=O)c2ccc(C#C[C@@H](C)O)cc2O[C@@H]1CN(C)C(=O)CN(C)C`, which activity score is on record?
Answer: -1.41%

Question: With `C[C@@H]1CN([C@@H](C)CO)S(=O)(=O)c2ccc(C#Cc3ccc(F)cc3)cc2O[C@H]1CN(C)C(=O)NC1CCCC1` as the compound, how does the activity score read?
Answer: 273% (active)

Question: For `Cc1ccc(S(=O)(=O)N(C)C[C@@H]2Oc3ccc(NC(=O)NC4CCCCC4)cc3C(=O)N([C@@H](C)CO)C[C@H]2C)cc1`, which activity score is on record?
Answer: -6.25%

Question: Which activity score does the source give for `C[C@@H]1CN([C@@H](C)CO)S(=O)(=O)c2ccc(C#Cc3ccccc3)cc2O[C@@H]1CN(C)C(=O)C1CC1` here?
Answer: -28.6%

Question: With `COCC#Cc1cnc2c(c1)C(=O)N([C@@H](C)CO)C[C@@H](C)[C@@H](CN(C)C(=O)c1cccnc1)O2` as the compound, how does the activity score read?
Answer: -8.09%

Question: For `CN1c2ccc(Br)cc2[C@@H]2[C@@H](CCN2C(=O)C2CCCCC2)[C@H]1CO`, which activity score is on record?
Answer: 25.4%

Question: Which activity score does the source give for `C[C@H](CO)N1C[C@H](C)[C@H](CN(C)C(=O)Nc2cccc3ccccc23)Oc2ncc(C#Cc3ccccc3)cc2C1=O` here?
Answer: -10%

Question: For `Cc1ccccc1S(=O)(=O)N1[C@H](C#N)[C@H](c2ccccc2)[C@H]1CO`, which activity score is on record?
Answer: -7.59%

Question: For `C[C@H](CO)N1C[C@H](C)[C@H](CN(C)S(=O)(=O)c2cccs2)Oc2ccc(NS(=O)(=O)c3ccc(Cl)cc3)cc2CC1=O`, which activity score is on record?
Answer: 3.99%

Question: Which activity score does the source give for `COc1ccc(CN(C)C[C@H]2OCCCC[C@H](C)Oc3ccc(NC(=O)Nc4ccc5c(c4)OCO5)cc3C(=O)N([C@H](C)CO)C[C@@H]2C)cc1` here?
Answer: 0.433%

Question: For `C[C@H](CO)N1C[C@H](C)[C@H](CN(C)S(=O)(=O)c2cccs2)Oc2c(NC(=O)Nc3ccc4c(c3)OCO4)cccc2C1=O`, which activity score is on record?
Answer: 6.62%

Question: For `O=C(C[C@H]1C[C@H]2c3cc(NC(=O)NC4CCCC4)ccc3O[C@H]2[C@H](CO)O1)NCCc1ccccc1`, which activity score is on record?
Answer: -18.1%

Question: Which activity score does the source give for `C[C@@H]1CN([C@H](C)CO)C(=O)c2cc(NS(=O)(=O)c3ccccc3)ccc2O[C@@H](C)CCCCO[C@H]1CN(C)C(=O)C1CCCCC1` here?
Answer: 18.3%

Question: For `CCC(=O)N1[C@@H](CO)[C@H](c2ccc(-c3cccc(F)c3)cc2)[C@@H]1CNC(C)=O`, which activity score is on record?
Answer: 2%

Question: For `C[C@H](CO)N1C[C@H](C)[C@@H](CN(C)S(=O)(=O)c2cccs2)Oc2ccc(NC(=O)Nc3cccc4ccccc34)cc2CC1=O`, which activity score is on record?
Answer: -2.1%

Question: For `C[C@@H]1CN([C@H](C)CO)C(=O)c2cccc(NC(=O)Nc3ccccc3)c2O[C@H]1CN(C)S(C)(=O)=O`, which activity score is on record?
Answer: 1.91%

Question: For `C[C@@H]1CN([C@H](C)CO)C(=O)c2cc(NS(=O)(=O)c3ccc(F)cc3)ccc2O[C@H]1CN(C)C(=O)Nc1cccc2ccccc12`, which activity score is on record?
Answer: -5.16%

Question: With `CCC(=O)N(C)C[C@H]1Oc2cc(C#CC3CCCC3)ccc2S(=O)(=O)N([C@H](C)CO)C[C@@H]1C` as the compound, how does the activity score read?
Answer: -3%

Question: With `COc1ccccc1-c1cn(CC[C@H]2CC[C@@H](NC(=O)CCN3CCCCC3)[C@@H](CO)O2)nn1` as the compound, how does the activity score read?
Answer: 7.11%

Question: For `O=C(Cc1ccccn1)NCC[C@H]1CC[C@H](NS(=O)(=O)c2ccccc2)[C@@H](CO)O1`, which activity score is on record?
Answer: 7.13%

Question: Which activity score does the source give for `COc1cccc(S(=O)(=O)Nc2ccc3c(c2)C(=O)N(C)C[C@@H](OC)[C@H](C)CN(C(=O)Cc2cccnc2)[C@H](C)CO3)c1` here?
Answer: -4.59%

Question: Which activity score does the source give for `CCOc1cc(/C=C2\SC(N3CCCCC3)=NC2=O)ccc1O` here?
Answer: 6.38%

Question: For `O=C1N=C(N2CCOCC2)S/C1=C\C=C/c1ccccc1`, which activity score is on record?
Answer: -1.22%

Question: For `O=C1N=C(N2CCc3ccccc3C2)S/C1=C\c1ccc(O)cc1`, which activity score is on record?
Answer: 376% (active)

Question: Which activity score does the source give for `Cc1c(NC(=O)c2c([N+](=O)[O-])cnn2C)c(=O)n(-c2ccccc2)n1C` here?
Answer: -20.3%

Question: For `Cc1cc(C)c(S(=O)(=O)Nc2c(C)n(C)n(-c3ccccc3)c2=O)cc1[N+](=O)[O-]`, which activity score is on record?
Answer: 3.79%

Question: With `Cc1c(Nc2cc(N3CCCC(C)C3)c3nonc3c2[N+](=O)[O-])c(=O)n(-c2ccccc2)n1C` (stereo unspecified) as the compound, how does the activity score read?
Answer: 273% (active)

Question: For `CC1CCCN(S(=O)(=O)c2ccc(N(C(=O)c3cnccn3)C(C(=O)NC3CCCCC3)c3cccs3)cc2)C1` (stereo unspecified), which activity score is on record?
Answer: 130% (active)

Question: For `CCc1ccc(N(C(=O)c2csnn2)C(C(=O)NC2CCCCC2)c2ccncc2)cc1` (stereo unspecified), which activity score is on record?
Answer: -16.9%

Question: With `O=C(NC1CCCCC1)C1CCCN(S(=O)(=O)c2cccs2)C1` (stereo unspecified) as the compound, how does the activity score read?
Answer: -10.8%
